{"source": "patent US6447767B1", "about": "“Non-myeloablative tolerogenic treatment” (Hadasit Medical Research Services and Development Ltd., priority 1997, dated 2002)", "key": {"[1]": {"system": "metastatic solid tumors / lymphoma", "assay": "AlloCT with rIL-2 activated mismatched lymphocytes plus tumor-specific antibodies (case reports)", "type": "in vivo, human", "from_the_text": "(§1) In the absence of a fully matched donor available, we have decided to use haploidentically mismatched related lymphocytes for induction of transient anti-tumor effects. Donor-derived anti-cancer effector lymphocytes consisted of rIL-2 activated cells (four days activation with rIL-26,000 IU/ml) or using donor lymphocytes activated in vitro against irradiated tumor cells or host alloantigens in one way mixed lymphocyte tumor reaction or using donor lymphocytes pre-cultured with irradiated parental or other family member expressing either one of the patient's haplotypes in one way mixed lymphocyte cultures (in order to induce effector cells against inherited paternal or maternal haplotypes, to maximize anti-host alloreactivity to be used as adoptive allogeneic cell therapy (alloCT). In order to maximize anti-cancer effects, patients can be immunosuppressed with Fludarabine 25 mg/m^2×5 days. […] Following cell infusion, patients receive subcutaneously rIL-2 6×10^6 IU/m^2 in an attempt to continue to activate in vivo donor anti-tumor reactive lymphocytes. Two weeks post cell therapy, patient may receive injections of alpha interferon 3×10^6 IU every other day subcutaneously as anti-proliferative and mostly as anti-angiogenic effects to minimize or jeopardize tumor cell growth from residual tumor cells escaping alloCT.\nThis patient was treated with the protocol. The dose of Herceptin infused was 2 mg/Kg (total dose 110 mg). Total number of rIL-2 activated lymphocytes obtained from their haploidentically mismatched sister was 10^7 nucleated cells/Kg. In parallel, patient received Eprex (recombinant human erythropoietin) and Neupogen (granulocyte-colony stimulating factor or “G-CSF”) (not part of the protocol) due to pancytopenia. The procedure was uneventful except for mild fever and tremor which accompanied the cell infusion, but it was transient and discontinued as soon as the infusion was over. No signs of GVHD developed.\nThe alloCT course was done according to the scheme described. This time Herceptin was given prior to infusions of rIL-2 activated peripheral blood cells obtained from their haploidentically mismatched brother, a total of 2-10^7 nucleated cells/Kg. A month later, the patient was treated with Herceptin, rIL-2 activated peripheral blood lymphocytes from another haploidentically mismatched brother, to a total of 2.52×10 nucleated cells/Kg, followed by five days of rIL-2 6×10^6 IU/m^2.\nPatient was diagnosed following onset of cervical lymphadenopathy. Non-Hodgkin lymphoma diffused large cell type (B cell type) was diagnosed and the patient was treated with six courses of CHOP for five consecutive months. First remission was accomplished on after this five month treatment. […]"}, "[2]": {"system": "BALB/c mouse spleen cells", "assay": "Mitogen-induced T cell proliferation ([3H]-thymidine incorporation)", "type": "cell-based", "settings": "ASTA-Z 100 μg/ml 30 min 37°C and/or IL-2 1,000 IU/ml", "method": "Mitogen-induced T cell proliferative responses were measured by culturing spleen cells in the presence of the T cell mitogens concanavalin A (ConA, 10 μg/ml) or phytohemagglutinin (PHA, 1 μg/ml) for three days. [^3H]-thymidine was added to the cultures for the last 6 hours of culture and T cell proliferation was measured in terms of counts per minute (cpm) of [^3H]-thymidine incorporated into the DNA of the cells using cell harvesting and radioactivity techniques known to those in the art.\nThe ability of the drug mafosphamide (ASTA-Z), which is identical to 4-hydroxyperoxycyclophosphamide (4HC), to deplete BALB/c mouse spleen cells of T cell responsiveness was tested under in vitro conditions known to result in preservation of hemopoeitic stem cell activity after treatment of hemopoietic cells from humans as well experimental animals (e.g., mice). BALB/c spleen cells were cultured for 30 minutes at 37° C. in tissue culture medium containing 100 μg/ml of ASTA-Z and then tested for in vitro T cell responses."}, "[3]": {"assay": "Side effects of rIL-2 in alloCT patients (case reports)", "type": "in vivo, human", "settings": "single patients, subcutaneous rIL-2 6×10^6 IU/m^2 after cell infusion", "from_the_text": "as §1"}}, "note": "“Also recorded” adds a separate entry of the source.", "data": [{"substance": "Herceptin: anti-HER 2/Neu antibody", "values": [{"measurement": "minimum level of TPS", "setting": "[1]; patient NR", "result": 237, "unit": "u/L"}, {"measurement": "minimum level of CA15.3", "setting": "[1]; patient NR, metastatic breast cancer, 223 U/ml before, Herceptin 2 mg/Kg with rIL-2 activated lymphocytes", "result": 41, "unit": "U/ml"}, {"measurement": "minimum level of carcino-embryonic antigen (CEA)", "setting": "[1]; patient NR, 2.6 mg/ml before", "result": 1.4, "unit": "mg/mL"}, {"measurement": "clinical outcome", "setting": "[1]; single patients, antibody given with rIL-2 activated haploidentically mismatched lymphocytes", "result": "partial response; also recorded: no signs of tumor regression"}]}, {"substance": "rIL-2: recombinant interleukin-2", "values": [{"measurement": "Cell Proliferation, Con-A", "setting": "[2]; ConA 10 μg/ml", "result": "52,287 cpm"}, {"measurement": "Cell Proliferation, PHA", "setting": "[2]; PHA 1 μg/ml", "result": "39,390 cpm"}, {"measurement": "Cell Proliferation, No Mitogens", "setting": "[2]; no mitogen", "result": "31,090 cpm"}, {"measurement": "side effects in response to rIL-2", "setting": "[3]", "result": "diffuse maculopapular urticaria-like skin rash; also recorded: nausea, malaise, and fever and weight loss; also recorded: malaise, fever, vomiting and diarrhea; also recorded: fatigue and fever; also recorded: gained weight (4 Kg) with some peripheral edema"}]}]}
